The text below walks through data of article PMC11748481.

This is a selection: effects in other tests are not listed, and their absence says nothing.

The data set is described as follows: Plasma pharmacokinetics after subcutaneous administration (noncompartmental analysis). To be noted: 300 μg/kg subcutaneous.
[1] abbreviates: male Sprague–Dawley rats, mean ± S.E.M (n = 6).

The Tmax is the time at which the peak concentration occurs. What is called Cmax is the peak of the concentration-time curve. As to `CCC(=O)N(c1ccccc1)C1CCN(CCc2ccccc2)CC1`, for the setting “male Sprague–Dawley rats (n = 6)”, the Tmax was determined as 30 min. In addition, under setting [1], the “AUC0-∞” value was determined as 112.83 ± 10.82 ng/mL X h and the highest concentration (Cmax) is 82.12 ± 11.78 ng/mL.
